We go through one molecule from patent US20250242340A1, “SABRE CATALYSTS CONTAINING FLUORINATED CARBON CHAINS FOR DELIVERY OF METAL-FREE MRI CONTRAST AGENTS” (The United States of America, as represented by the …, priority 2022, published 2025).

Structures are written as SMILES.

For the series the following is noted: 20 mM sodium [1-13C]pyruvate, 2.6 mM catalyst of Example 4, 40 mM DMSO, 0.4 μT, 0 °C, 110 PSI, 90 scc/m p-H2, 1.8 T NMR.

For the molecule `CC(=O)C(=O)O` [[1-^13C]pyruvate, Sodium [1-^13C]-pyruvate], the “13C signal enhancement ε” value is roughly 86500 fold and the “P13C (13C polarization)” value is on record as roughly 13.48%.
